The numbers were not newly measured in patent US20180273780A1, “WATER-BASED INK COMPOSITION FOR INK JET RECORDING AND COLORING MATERIAL LIQUID” (Seiko Epson Corporation, priority 2017, published 2018), which cites them from elsewhere.

Take ethylhexyl glycerin: the “water-octanol partition coefficient (log P)” value is 2.5.
